Test results taken from PubChem BioAssay AID1745844 (Carcinogenic Potency Database (CPDB), 2022).

Tested on: rodent lifetime carcinogenesis bioassay, tumor incidence TD50
Assay: chronic cancer bioassays in animals – CPDB, compiled studies (AID 1745844)
Settings: rat, strain BR 46, males, i.v., site: any site (literature study), dosed 52 weeks, study length 104 weeks

With `CN(CCCl)CCCl` the TD50 (lesion: benign tumor) was 0.0342 mg/kg/day, the TD50 (lesion: malignant tumor) was 0.0228 mg/kg/day and the TD50 (lesion: several types, types named in the paper) was 0.0114 mg/kg/day.
